Among the data in patent US10155733B2, “N-aralkylcarbonyl-piperazine and -homopiperazine compounds and personal care compositions comprising the same” (Conopco, Inc., priority 2015, dated 2018) are IC50 values, retold here.

The chains behind the UniProt entries cited, without tags or fusion partners.
UniProt P20309, whole entry: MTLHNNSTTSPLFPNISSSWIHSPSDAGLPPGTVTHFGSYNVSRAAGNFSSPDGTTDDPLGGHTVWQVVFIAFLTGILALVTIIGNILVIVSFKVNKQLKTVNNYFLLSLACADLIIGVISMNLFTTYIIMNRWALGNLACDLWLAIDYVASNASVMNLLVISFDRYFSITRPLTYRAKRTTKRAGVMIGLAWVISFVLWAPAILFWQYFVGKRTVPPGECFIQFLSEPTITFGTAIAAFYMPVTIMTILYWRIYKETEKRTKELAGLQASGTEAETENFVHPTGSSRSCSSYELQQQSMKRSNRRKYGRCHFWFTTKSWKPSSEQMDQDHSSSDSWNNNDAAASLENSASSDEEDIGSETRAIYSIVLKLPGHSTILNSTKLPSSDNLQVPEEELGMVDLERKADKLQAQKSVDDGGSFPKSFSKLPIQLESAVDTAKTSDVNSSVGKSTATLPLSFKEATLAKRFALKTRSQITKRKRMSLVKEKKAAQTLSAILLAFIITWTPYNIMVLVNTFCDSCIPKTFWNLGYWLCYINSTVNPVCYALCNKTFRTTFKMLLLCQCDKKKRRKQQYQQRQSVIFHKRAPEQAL

The term IC50 denotes the concentration needed to halve the response being measured. A lower IC50 goes with inhibition by little substance.

In the assay the target is human M3 receptor (Homo sapiens (Human), UniProt P20309). In words: Muscarinic 3 receptor binding assay (3H-scopolamine displacement). How it is done:
The muscarinic 3 receptor binding assay was adapted from Perkin Elmer. […] Atropine (Sigma-Aldrich, St. Louis, Mo.) was used as a positive control. […] The reaction mixtures were then added to matrix 96-well GFC filtration microtiter plates that had been previously pretreated with 0.5% polyethylimine (100 μL) for 4 h and filtered. The binding reactions were terminated by filtering through the GFC plates and washing & filtering with ice-cold phosphate saline buffer (5×100 μL). Once the filters were dry, microscint scintillation cocktail (100 μL) was added to each well, allowed to sit for 20 min and the plates analyzed using a TopCount scintillation counter. […] Curve fitting of % inhibition versus concentration using Excell software allowed determination of IC50 values for test compounds.

As for `O=C(CCc1ccccc1)N1CCN(C(=O)C(O)(c2ccccc2)C2CCCC2)CC1` (stereo not shown) [Compound 13], the IC50 was determined as 1400 nM.
